The values below are quoted from earlier work in patent publication US12100485B2, “Machine learning and molecular simulation based methods for enhancing binding and activity prediction” (The Board of Trustees of the Leland Stanford Junior …, priority 2018, dated 2024).

SMILES strings stand for the structures.

The test system of the data set is μOR.

Turning to `CN1CC[C@]23c4c5ccc(O)c4O[C@H]2C(=O)CC[C@H]3[C@H]1C5` [hydromorphone], the Action entry is “agonist”.
